Among the data in ChEMBL document CHEMBL1136888, “Design, synthesis, and biological evaluation of novel diarylalkyl amides as TRPV1 antagonists” (Bioorg Med Chem, 2009) are IC50 values, retold here.

Amino acid sequences for entries named in this document (tags omitted).
UniProt O35433, whole entry: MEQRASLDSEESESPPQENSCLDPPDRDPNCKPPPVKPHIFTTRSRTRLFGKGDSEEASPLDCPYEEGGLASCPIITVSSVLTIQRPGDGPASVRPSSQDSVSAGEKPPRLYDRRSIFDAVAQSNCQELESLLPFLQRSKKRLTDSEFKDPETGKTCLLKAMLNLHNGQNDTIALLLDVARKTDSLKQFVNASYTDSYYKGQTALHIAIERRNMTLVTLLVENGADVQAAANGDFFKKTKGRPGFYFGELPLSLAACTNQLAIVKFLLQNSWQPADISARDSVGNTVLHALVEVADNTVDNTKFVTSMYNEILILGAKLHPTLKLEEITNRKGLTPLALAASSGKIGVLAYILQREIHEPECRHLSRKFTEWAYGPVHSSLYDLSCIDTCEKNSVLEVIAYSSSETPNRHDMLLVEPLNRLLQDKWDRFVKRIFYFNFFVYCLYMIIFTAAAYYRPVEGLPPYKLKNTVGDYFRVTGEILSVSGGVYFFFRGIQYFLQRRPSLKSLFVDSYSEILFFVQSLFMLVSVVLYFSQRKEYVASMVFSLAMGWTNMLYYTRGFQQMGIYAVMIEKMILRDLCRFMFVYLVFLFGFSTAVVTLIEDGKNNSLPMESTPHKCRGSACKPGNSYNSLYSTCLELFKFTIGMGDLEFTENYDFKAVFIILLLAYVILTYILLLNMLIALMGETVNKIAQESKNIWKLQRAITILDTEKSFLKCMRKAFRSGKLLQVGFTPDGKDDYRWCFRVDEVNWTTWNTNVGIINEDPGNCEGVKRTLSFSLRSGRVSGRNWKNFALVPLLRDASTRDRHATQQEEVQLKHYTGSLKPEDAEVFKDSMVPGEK

Each structure is given as a SMILES string.

For the assay, the target named is Transient receptor potential cation channel subfamily V member 1 (Rattus norvegicus, UniProt O35433). Kind of assay: Antagonist activity at TRPV1 in Sprague-Dawley rat DRG neuron assessed as reduction of capsaicin-stimulated 45Ca2+ uptake. It is filed as functional. In short, it runs like this: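 Neonatal Sprague-Dawley rat DRG neurons (all spinal levels) dissociated with collagenase/trypsin and cultured 3 days with C6 glioma-conditioned medium. Washed in HEPES (10 mM, pH 7.4) Ca/Mg-free HBSS. Exposed to 45Ca2+ plus 0.5 µM capsaicin with compound for 10 min at room temperature. Cells washed, SDS-lysed, scintillation counted.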

One may read the IC50 as the point on the concentration scale where inhibition reaches its midpoint. For the molecule `CC(C)(C)c1ccc(/C=C/C(=O)NCc2ccc(NS(C)(=O)=O)c(F)c2)cc1`, the IC50 turned out to be 490 nM.
